We go through two compounds from publication PMC4089508 (Bioorganic & medicinal chemistry, 2014).

Bounds are passed on as bounds.

In series [1] the test system is cellular microtubules in A-10 cells. In words: Loss of cellular microtubules, indirect immunofluorescence in A-10 cells. In kind it is cell-based.
Series [2] can be described thus: physchem. As to conditions: water.

As to `COc1ccc(N(C)c2nc(C)nc3oc(C)cc23)cc1` [Compound 11, N-(4-methoxyphenyl)-N,2,6-trimethylfuro[2,3-d]pyrimidin-4-amine], in series [1], the “effect on cellular microtubules” value is recorded as “dose-dependent loss of cellular microtubules”. In series [2], `COc1ccc(N(C)c2nc(C)nc3oc(C)cc23)cc1.Cl` [Compound 21, N-(4-methoxyphenyl)-N,2,6-trimethylfuro[2,3-d]pyrimidin-4-amine hydrochloride] returned a solubility above 1000 mg/mL.

A word on the solubility: it is how much of the substance goes into solution per volume. A low value points to little dissolved substance.
